This note sets out measurements from PubChem BioAssay AID2520 (Sanford-Burnham Center for Chemical Genomics, 2010).

Amino acid sequences for entries named in this document (tags omitted). A change or cut given only in a name is not applied to a line headed by its entry.
UniProt P35414: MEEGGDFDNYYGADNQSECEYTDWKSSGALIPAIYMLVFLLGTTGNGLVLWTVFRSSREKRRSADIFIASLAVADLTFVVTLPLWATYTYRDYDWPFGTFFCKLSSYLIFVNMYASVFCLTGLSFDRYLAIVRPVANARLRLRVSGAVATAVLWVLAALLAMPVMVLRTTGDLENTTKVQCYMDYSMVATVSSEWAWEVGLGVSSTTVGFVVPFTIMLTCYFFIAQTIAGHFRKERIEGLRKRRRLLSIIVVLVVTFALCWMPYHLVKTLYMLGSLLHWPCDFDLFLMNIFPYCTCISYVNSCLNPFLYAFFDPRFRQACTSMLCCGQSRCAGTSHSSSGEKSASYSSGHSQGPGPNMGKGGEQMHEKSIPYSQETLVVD

Molecules are shown by their SMILES. Only a part is listed here, and it is no random draw. Activity calls are given as the source filed them.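 How the source made its calls: active means activation more than six SD over the plate average, tested at 20 µM; inactive means the rest.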

In the assay the target is Apelin receptor (Homo sapiens) (UniProt P35414). In words: APJ activation via beta-arrestin recruitment – CHO-K1 cells, PathHunter beta-arrestin, luminescence, primary screen (AID 2520). As to conditions: at 20 µM, active compounds read high, 0% DMSO wells, 100% apelin. In outline: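 Incubation: overnight seeding, 90 min compound at 25 °C, 1 h detection; test system: PathHunter CHO-K1 APJ (AGTRL-1) beta-arrestin reporter cells; amount: 1000 cells/well; doses: one dose, 20 µM compound, 1% DMSO; measured by: beta-gal luminescence; measure: agonist-driven arrestin binding to APJ; benchmarks: negative DMSO alone, positive Apelin-13 at 10 nM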
Turning to `CN(C(=O)Cc1ccc(Cl)c(Cl)c1)[C@H]1CCCC[C@H]1N1CCCC1`, the activation is inactive: -0.837%.

Turning to `Cc1ccc(N/C(=N/P(=O)(N2CCOCC2)N2CCOCC2)N2CCOCC2)cc1`, the activation is inactive: -2.45%.

Regarding `NC(=O)c1cc([N+](=O)[O-])cc([N+](=O)[O-])c1N`, the activation is inactive: 1.54%.

As to `Clc1ccc(Cl)c(NC2=NCC(CBr)S2)c1` (stereo not drawn), the activation is inactive: -2.07%.

For `CN1CCCC(OC(=O)C(c2ccccc2)c2ccccc2)C1` (stereo not drawn), the activation was inactive: -3.83%.

In the case of `COc1ccccc1OP(=O)(Nc1ccc(C)cn1)Oc1ccccc1OC`, the activation was inactive: 2.02%.

Take `Cc1ccc(OP(=O)(Nc2nccs2)Oc2ccc(C)cc2)cc1`: the activation was inactive: -3.75%.

In the case of `Oc1ccccc1CNc1ccccn1`, the activation is inactive: 1.06%.

As to `Cc1c2non([O-])c-2c(C)[n+](=O)[n+]1[O-]`, the activation was inactive: 0.0599%.

On to `O=C(NC(Sc1ccncn1)C(Cl)(Cl)Cl)c1ccccc1` (stereo not drawn), for which the activation is inactive: -2.59%.

For `CC(C)CC(=O)NC(Sc1ccc(Cl)cc1)C(Cl)(Cl)Cl` (stereo not drawn), the activation was inactive: -0.853%.

`Nc1cc(N)c2nonc2c1[N+](=O)[O-]`: the activation was inactive: 2.25%.

With `O=P(Nc1nc2ccc(Cl)cc2s1)(c1ccccc1)c1ccccc1`, the activation is inactive: -4.57%.

For `O=C(O)c1ccccc1[As](=O)(O)O`, the activation is inactive: -3.74%.

For `CC(=O)Nc1ccc([As](=O)(O)O)cc1`, the activation is inactive: 0.24%.

For `CCOP(=O)(Nc1ccccc1)OCC`, the activation is inactive: 2.52%.

Take `Cc1cc(SC(NC(=O)c2ccc(F)cc2)C(Cl)(Cl)Cl)ncn1` (stereo not drawn): the activation was inactive: -4.3%.

On to `Cc1ccc(NP(=O)(Oc2ccccc2F)Oc2ccccc2F)nc1`, for which the activation is inactive: -2.5%.

Consider `CN(C(=O)Cc1ccc(Cl)c(Cl)c1)[C@H]1CCCC[C@@H]1N1CCCC1`, for which the activation was inactive: -4.45%.

As for `O=[N+]([O-])c1cc([N+](=O)[O-])c(CCN2CCOCC2)c([N+](=O)[O-])c1`, the activation is inactive: 2.06%.

Consider `CCN(N=Nc1nonc1N)c1nonc1N`, for which the activation was inactive: -4.06%.

Regarding `O=C(Nc1cc([As](=O)(O)O)ccc1O)c1ccccc1`, the activation was inactive: -0.276%.

Consider `O=[N+]([O-])c1ncn(CCn2ncnc2[N+](=O)[O-])n1`, for which the activation was inactive: 0.905%.

On to `CC(C)(C)C(=O)NC(Sc1ccncn1)C(Cl)(Cl)Cl` (stereo not drawn), for which the activation is inactive: -6.97%.

Turning to `O=[N+]([O-])c1cccc(NC2=NCC(CBr)S2)c1` (stereo not drawn), the activation was inactive: 0.57%.

For the molecule `COc1ccc(C2=NCC(CBr)S2)cc1` (stereo not drawn), the activation was inactive: 1.66%.

On to `Cc1ccc(NP(=O)(Oc2ccccc2)Oc2ccccc2)nc1`, for which the activation is inactive: -0.663%.

Regarding `CCc1nc2c(n1)c1c(non1O)c1c2no[n+]1[O-]`, the activation is inactive: 6.22%.

On to `O=[N+]([O-])c1cc([N+](=O)[O-])c(CCNc2ccccc2)c([N+](=O)[O-])c1`, for which the activation was inactive: -0.107%.

For the molecule `O=[N+]([O-])c1cccc2n[nH]nc12`, the activation was inactive: 1.89%.

Consider `CC(=O)N1C2C3N(C(C)=O)C1C1N(C(C)=O)C(C(N1C(C)=O)N3C(C)=O)N2C(C)=O`, for which the activation was inactive: -2.72%.

On to `CCN(/C(=N/P(=O)(N1CCOCC1)N1CCOCC1)N1CCOCC1)c1ccc(OC)cc1`, for which the activation is inactive: -2%.

With `Nc1ccc([As](=O)(O)c2ccc(N)cc2)cc1`, the activation is inactive: -2.75%.

Turning to `C[N+]1=C2C=CC=CC=C2SC12C([N+](=O)[O-])=CC([N+](=O)[O-])=C[C-]2[N+](=O)[O-]` (stereo not drawn), the activation is inactive: -7.22%.

On to `CC1CCN(C(=O)Oc2c(Cl)cc(Cl)c3cccnc23)CC1`, for which the activation is inactive: -5.88%.

`CC(C)=N/N=C(\N)N[N+](=O)[O-]`: the activation was inactive: -1.8%.

Regarding `CN(C)C(=O)OCCc1n(C)cc[n+]1C`, the activation is inactive: -0.799%.

As for `CC(C)C(=O)NC(Sc1ccccc1)C(Cl)(Cl)Cl` (stereo not drawn), the activation is inactive: -1.65%.

Take `O=P(Nc1nccs1)(c1ccccc1)c1ccccc1`: the activation is inactive: -4.03%.

For `c1nnnn1CCn1cnnn1`, the activation was inactive: -3.34%.

As to `O=P(Nc1ccccn1)(c1ccc(Br)cc1)c1ccc(Br)cc1`, the activation is inactive: -4.41%.

`CN(C)C1(CNC(=O)c2ccc(Cl)c(S(N)(=O)=O)c2)CCCCC1`: the activation is inactive: 0.363%.

Consider `O=P(Nc1nc2ccccc2s1)(c1ccccc1)c1ccccc1`, for which the activation was inactive: -3.72%.

In the case of `C[C@H]1OP(=O)(Oc2ccccc2)[C@H](O)[C@H](O)[C@H]1N=[N+]=[N-]` (stereo partly drawn), the activation is inactive: 6.21%.

Regarding `O=[As](O)(c1ccccc1)c1ccc(O)cc1`, the activation is inactive: -5.1%.

`O=[N+]([O-])c1ncn(CCn2cnc([N+](=O)[O-])n2)n1`: the activation was inactive: -0.316%.

Take `O=C(OC1CN2CCC1CC2)c1cccc(Cl)c1` (stereo not drawn): the activation was inactive: -5.21%.

Regarding `Nc1ccc([As](=O)(O)c2ccc([N+](=O)[O-])cc2)cc1`, the activation was inactive: 0.547%.

With `C(Cc1nn[nH]n1)Cc1nn[nH]n1`, the activation is inactive: 2.13%.

As for `c1ccc(-c2nn[nH]n2)c(-c2nn[nH]n2)c1`, the activation was inactive: -1.56%.

`CCOC(=O)NC(Sc1ccccc1)C(Cl)(Cl)Cl` (stereo not drawn): the activation is inactive: -3.19%.

For `Cc1ccc(NP(=O)(Oc2cccc(C)c2)Oc2cccc(C)c2)nc1`, the activation was inactive: -5.83%.

In the case of `CCNC(=S)/N=C(\N)N[N+](=O)[O-]`, the activation was inactive: -2.86%.

For `O=C(NC1CCS(=O)(=O)C1)NP(=S)(Oc1ccccc1)Oc1ccccc1` (stereo not drawn), the activation was inactive: 0.711%.

Take `O=C(OC1CN2CCC1CC2)c1ccccc1` (stereo not drawn): the activation is inactive: -4.09%.

`CCC(=O)N1C2C3N(C(=O)CC)C1C1N(C(=O)CC)C(C(N1C(=O)CC)N3C(=O)CC)N2C(=O)CC`: the activation was inactive: 0.556%.

Consider `COC(=O)c1cc2c(s1)N=C(c1ccccc1)N(C)P2(=O)N1CCOCC1` (stereo not drawn), for which the activation was inactive: -3.85%.

Regarding `Cc1ccc(OP(=O)(Nc2ccccn2)Oc2ccc(C)cc2)cc1`, the activation was inactive: -1.66%.

As to `CC(=O)NC(SC(=S)N(CC(C)C)CC(C)C)C(Cl)(Cl)Cl` (stereo not drawn), the activation is inactive: 1.88%.

`Cc1ccccc1OP(=O)(Nc1ccccn1)Oc1ccccc1C`: the activation is inactive: -1.04%.

Consider `CC(NC(=O)COC(=O)C(O)(c1ccccc1)c1ccccc1)c1ccccc1` (stereo not drawn), for which the activation is inactive: 0.0513%.

In the case of `CN(C)C(=O)Oc1noc2ccccc12`, the activation is inactive: 3.2%.

In the case of `O=P1(Nc2nc3ccc(Cl)cc3s2)COc2ccccc2O1` (stereo not drawn), the activation was inactive: 2.52%.

For `CCOc1ccc(C2=NCC(CBr)S2)cc1` (stereo not drawn), the activation is inactive: -2.7%.

As to `CC(C)(C)C(=O)NC(Sc1ccccc1)C(Cl)(Cl)Cl` (stereo not drawn), the activation is inactive: -0.748%.

As for `Cc1ccccc1CN(C)C(=O)COC(=O)C(O)(c1ccccc1)c1ccccc1`, the activation is inactive: -2.3%.

As for `C[C@@H]1C=CCP(=O)(Oc2ccccc2)O1` (stereo partly drawn), the activation is inactive: -5.08%.

As to `C[C@H]1OP(=O)(Oc2ccccc2)C[C@@H]2O[C@@H]21` (stereo partly drawn), the activation is inactive: -2.73%.

As to `CC(=O)c1ccc(N2CC2c2ccncc2)cc1` (stereo not drawn), the activation was inactive: -1.8%.

For the molecule `CC(=O)Nc1ccc([As](=O)(O)O)c(O)c1`, the activation is inactive: -0.5%.

Take `CC(=O)Nc1ccc(Oc2c([N+](=O)[O-])cc([N+](=O)[O-])cc2[N+](=O)[O-])cc1`: the activation was inactive: -3.79%.

Take `O=C(OC1CN2CCC1CC2)c1ccc(Cl)cc1` (stereo not drawn): the activation was inactive: -0.952%.

Take `COc1cc(C(=O)NCC2(N3CCOCC3)CCCCC2)cc(Cl)c1OC(C)C`: the activation was inactive: -0.465%.

Regarding `O=[As](O)(O)c1cccnc1`, the activation was inactive: -1.54%.

Turning to `CS(=O)(=O)c1ccc(Cl)c(NC(=O)COC(=O)C(O)(c2ccccc2)c2ccccc2)c1`, the activation was inactive: 3.39%.

Take `O=[As](O)(c1cccc(O)c1)c1cccc(O)c1`: the activation is inactive: -6.23%.

`Cc1cccc(OCC(=O)OC2CN3CCC2CC3)c1` (stereo not drawn): the activation is inactive: 1.16%.

As to `Cc1ccc(NCCc2c([N+](=O)[O-])cc([N+](=O)[O-])cc2[N+](=O)[O-])cc1`, the activation was inactive: 5.06%.

Regarding `CCCOP(=S)(Nc1nc(N)cc(=O)[nH]1)OCCC`, the activation is inactive: -1.14%.

Take `COc1cc(C2NCCC3(OCCO3)C2(C)C)cc(OC)c1OC` (stereo not drawn): the activation is inactive: -1.82%.

For the molecule `CCOP(=O)(Nc1cccc2ccccc12)OCC`, the activation was inactive: -2.7%.

As for `CCOP1(=S)c2c(C)nn(CCC#N)c2N=C(c2ccccc2F)N1C` (stereo not drawn), the activation was inactive: -4.54%.

In the case of `O=P(Nc1nccs1)(c1ccccc1)c1nc2ccccc2s1` (stereo not drawn), the activation was inactive: -3.01%.

Regarding `O=P(Nc1nccs1)(Oc1ccccc1)Oc1ccccc1`, the activation is inactive: 1.98%.

As to `CS(=O)(=O)c1cc([N+](=O)[O-])c2no[n+]([O-])c2c1`, the activation is inactive: 2.72%.

Regarding `Nc1ccccc1[As](=O)(O)c1ccccc1`, the activation was inactive: 0.523%.

As for `O=C(O)COc1ccc([As](=O)(O)O)cc1[N+](=O)[O-]`, the activation was inactive: -1.66%.

`NC(=O)Nc1ccc([As](=O)(O)O)cc1`: the activation was inactive: 7.53%.

For the molecule `N#CCCN(C(=O)COC(=O)C(O)(c1ccccc1)c1ccccc1)c1ccc(F)cc1`, the activation was inactive: -5.09%.

`CCOP1(=S)c2c(C)nn(CCC#N)c2N=C(c2ccc(F)cc2)N1C` (stereo not drawn): the activation was inactive: -2.26%.

On to `CN(C(=O)Cc1ccccc1)[C@@H]1CC[C@]2(CCCO2)C[C@H]1N1CCCC1`, for which the activation is inactive: 3.01%.

Take `CN(C)C(=O)c1cc([N+](=O)[O-])cc2c1-c1c(cc([N+](=O)[O-])cc1[N+](=O)[O-])C2=O`: the activation was inactive: -0.287%.

Take `O=[N+]([O-])c1ccc2c(c1)nnn2O`: the activation was inactive: -3.72%.

As for `CN(C(=O)Cc1ccc(Cl)c(Cl)c1)[C@H]1CC[C@@]2(CCCO2)C[C@@H]1N1CCCC1`, the activation is inactive: 2.73%.

Take `Cc1nn(-c2ccccc2)c2c1P(=O)(N1CCOCC1)N(C)C(c1ccccc1)=N2` (stereo not drawn): the activation is inactive: -3.91%.

On to `CC1CCC(C(C)C)C(OP(=O)(Nc2ccccn2)c2ccccc2)C1` (stereo not drawn), for which the activation was inactive: -1.3%.

Consider `Cc1ccc(C(=O)OC2CN3CCC2CC3)cc1` (stereo not drawn), for which the activation was inactive: -0.919%.

On to `CN(C)C1(CNC(=O)c2ccc(S(C)(=O)=O)cc2)CCCCC1`, for which the activation is inactive: -6.25%.
